The values below are quoted from earlier work in patent publication US8519145B2, “Aryl compounds as PPAR ligands and their use” (Seoul National University Industry Foundation, priority 2006, dated 2013).

Chains of the proteins cited; added tags and fusions are not shown. Lines headed by an entry give the natural chain unless they say otherwise; changes in a name come on top.
UniProt Q03181, whole entry: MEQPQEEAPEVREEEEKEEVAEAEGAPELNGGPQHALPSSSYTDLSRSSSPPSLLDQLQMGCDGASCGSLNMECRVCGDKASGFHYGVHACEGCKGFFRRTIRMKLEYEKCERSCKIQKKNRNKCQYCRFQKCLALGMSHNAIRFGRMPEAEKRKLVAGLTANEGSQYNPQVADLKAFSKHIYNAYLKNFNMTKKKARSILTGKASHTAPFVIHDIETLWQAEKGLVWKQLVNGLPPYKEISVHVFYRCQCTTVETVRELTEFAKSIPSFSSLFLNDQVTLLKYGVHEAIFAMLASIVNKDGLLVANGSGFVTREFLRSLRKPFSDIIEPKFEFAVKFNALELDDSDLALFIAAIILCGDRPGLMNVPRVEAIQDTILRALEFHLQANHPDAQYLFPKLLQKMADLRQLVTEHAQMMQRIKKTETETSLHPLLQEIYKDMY

The data set has as its target hPPARδ (Homo sapiens, UniProt Q03181). The conditions noted are these: literature; cited from earlier work.

Molecules are shown by their SMILES.

For `CCCc1c(OCCCSc2ccc(CC(=O)O)cc2Cl)ccc2c(C(F)(F)F)noc12`, the “selectivity to other hPPAR subtypes” value is “barely have selectivity”.
